The values that follow come from US20090054338A1, “Synergisms between repartitioning and immunomodulating compounds” (priority 2007, published 2009).

Assay in data set [1]: not given
This is another data set of the same source.

Like-named read-outs stand apart in the source and are kept apart here.

Turning to beta 1.3/1.6 D-glucan [Agrastim®], the “degraded after incubation in rumen fluid” value is, setting by setting: (2 hours incubation in rumen fluid from cattle) “not more than 3%”; (4 hours incubation in rumen fluid from cattle) “not more than 15%”. Further, the “Remaining beta-glucan (%)” value runs as follows: (incubation period 0.5 hrs in cattle rumen fluid) 98%; (incubation period 2.0 hrs in cattle rumen fluid) 97%; (incubation period 4.0 hrs in cattle rumen fluid) 85%; (incubation period 8.0 hrs in cattle rumen fluid) 60%; (incubation period 12.0 hrs in cattle rumen fluid) 20%. The “pre-systemic metabolism in cattle” value in data set [1] (cattle rumen, concluded from the in vitro and in vivo studies) is given as “insignificant pre-systemic metabolism”. Besides, the “time to clear the rumen” value in data set [1] (in vivo, cattle) is no more than 2 h.
